Among the data in paper PMC3562396 are percent of CaN associated with RCAN1 values, retold here.

The chains behind the UniProt entries cited, without tags or fusion partners. Where a name states a change or a piece, a line headed by the entry shows the natural chain unless it says otherwise.
UniProt P53805: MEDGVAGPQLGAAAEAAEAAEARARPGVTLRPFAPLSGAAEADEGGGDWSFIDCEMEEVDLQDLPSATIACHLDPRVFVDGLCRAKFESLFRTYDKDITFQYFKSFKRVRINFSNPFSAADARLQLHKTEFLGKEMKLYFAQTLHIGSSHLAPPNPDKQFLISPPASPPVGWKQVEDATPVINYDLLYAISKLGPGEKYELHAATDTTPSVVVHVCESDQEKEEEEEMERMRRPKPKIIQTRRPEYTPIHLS

The target of this assay is epitope-tagged human RCAN1 (RCAN1-HA-Flag) expressed from the BAC transgene (human) (UniProt P53805). Put plainly: co-IP.

Some results are limits rather than exact numbers.

The substance “calcineurin (CaN) phosphatase, catalytic and regulatory subunits (from UniProt P63328 1-521; Q63810 1-170) (complex)” registered a percent of CaN associated with RCAN1 of less than 1%.
